Data published in US20230003720A1 (priority 2016, published 2023).
“Also recorded” adds a separate entry of the source.

Legend:
[1] = system: cells having broadly, moderately or narrowly tuned odorant receptors; assay type: cell-based

Structure (SMILES): COc1cc(C(=O)O)ccc1O [vanillic acid]
- detection of presence of the sample [1]: will be able to detect; also recorded: will not be able to detect
- level of luminescence at different concentrations (mOR160-1): low background signal
- level of luminescence at different concentrations (mOR9-1): decreasing level of luminescence as the concentration of vanillic acid is decreased
- lower limit of detection (mOR9-1): about 10 nM
- receptor tuning over a panel of different compounds (luminescence) (mOR9-1): more narrowly tuned
- level of luminescence at different concentrations (mOR177-1): low background signal
